# Molecular target: T1, CB1 cannabinoid receptor (Rattus norvegicus, UniProt P20272)
# Chains of the proteins cited; added tags and fusions are not shown.
# UniProt P20272, whole entry: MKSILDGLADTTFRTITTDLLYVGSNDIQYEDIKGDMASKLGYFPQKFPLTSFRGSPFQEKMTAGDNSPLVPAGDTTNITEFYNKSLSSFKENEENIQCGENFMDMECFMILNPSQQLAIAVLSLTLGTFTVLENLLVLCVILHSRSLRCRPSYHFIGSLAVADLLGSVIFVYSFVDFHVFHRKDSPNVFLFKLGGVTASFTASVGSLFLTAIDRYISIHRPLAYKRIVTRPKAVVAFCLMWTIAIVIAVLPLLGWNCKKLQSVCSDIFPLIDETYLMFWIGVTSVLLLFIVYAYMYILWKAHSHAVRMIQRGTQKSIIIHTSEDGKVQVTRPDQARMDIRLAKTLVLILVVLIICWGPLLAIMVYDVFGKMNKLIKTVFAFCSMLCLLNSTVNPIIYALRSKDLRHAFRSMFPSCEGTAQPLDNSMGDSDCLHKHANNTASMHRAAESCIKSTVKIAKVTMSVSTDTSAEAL
# T1 construct: membranes were prepared from rat forebrain membranes; from tissue; host or cells: rat forebrain
# Experiment: CB1 receptor binding, rat forebrain membranes, [3H] CP-55,940 displacement
# Conditions: ratio of CB2 Ki to CB1 Ki
# Description: Some of the inventive analogs were tested for CB2 receptor binding affinity and for CB1 receptor affinity (to determine selectivity). […] The lower the Ki value the higher the binding affinity. […]
# Membranes, previously frozen at −80° C., were thawed on ice. To the stirred suspension was added three volumes of TME (25 mM Tris-HCl buffer, 5 mM MgCl2 and 1 mM EDTA) at a pH 7.4. The suspension was incubated at 4° C. for 30 min. At the end of the incubation, the membranes were pelleted and washed three times with TME.
# The treated membranes were subsequently used in the binding assay described below. Approximately 30 μg of membranes were incubated in silanized 96-well microtiter plate with TME containing 0.1% essentially fatty acid-free bovine serum albumin (BSA), 0.8 nM [^3H] […] Radioactivity was detected using MicroScint 20 scintillation cocktail added directly to the dried filterplates, and the filterplates were counted using a Packard Instruments Top-Count. […] Data collected from three independent experiments performed with duplicate determinations was normalized between 100% and 0% specific binding for [^3H] […] The normalized data was analyzed using a 4-parameter nonlinear logistic equation to yield IC50 values.
row,Structure (SMILES),selectivity CB1
1,Cc1c(C(=O)Nc2ccc3ccccc3c2)nn(CCCCCCl)c1-c1ccccc1 [Compound 4-3],1
2,Cc1c(C(=O)NC2C3CC4CC(C3)CC2C4)nn(CCCCCCl)c1-c1ccccc1 (centres unmarked) [Compound 4-4],1.1
